# Columns and labels:
# Sequences of proteins named here, by UniProt entry; tags and fusion partners are left off. Residues count along the entry.
# UniProt P31652, whole entry: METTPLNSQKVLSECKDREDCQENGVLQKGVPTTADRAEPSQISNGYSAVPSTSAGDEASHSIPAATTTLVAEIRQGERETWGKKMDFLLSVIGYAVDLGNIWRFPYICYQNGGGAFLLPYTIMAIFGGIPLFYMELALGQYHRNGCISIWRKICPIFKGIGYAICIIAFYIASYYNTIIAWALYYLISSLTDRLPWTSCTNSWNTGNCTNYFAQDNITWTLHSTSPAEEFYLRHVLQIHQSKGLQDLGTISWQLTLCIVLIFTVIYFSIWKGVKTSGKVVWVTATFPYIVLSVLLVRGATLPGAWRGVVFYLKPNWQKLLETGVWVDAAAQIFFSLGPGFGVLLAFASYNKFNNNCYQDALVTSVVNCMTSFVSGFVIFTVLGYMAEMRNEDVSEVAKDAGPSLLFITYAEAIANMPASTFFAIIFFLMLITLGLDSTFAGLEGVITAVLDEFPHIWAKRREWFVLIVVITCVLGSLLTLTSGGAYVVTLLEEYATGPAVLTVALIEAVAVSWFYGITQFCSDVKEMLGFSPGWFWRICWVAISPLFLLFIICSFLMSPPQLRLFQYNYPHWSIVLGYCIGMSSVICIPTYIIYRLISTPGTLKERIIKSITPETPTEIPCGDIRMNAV
# UniProt Q63380, 1-617: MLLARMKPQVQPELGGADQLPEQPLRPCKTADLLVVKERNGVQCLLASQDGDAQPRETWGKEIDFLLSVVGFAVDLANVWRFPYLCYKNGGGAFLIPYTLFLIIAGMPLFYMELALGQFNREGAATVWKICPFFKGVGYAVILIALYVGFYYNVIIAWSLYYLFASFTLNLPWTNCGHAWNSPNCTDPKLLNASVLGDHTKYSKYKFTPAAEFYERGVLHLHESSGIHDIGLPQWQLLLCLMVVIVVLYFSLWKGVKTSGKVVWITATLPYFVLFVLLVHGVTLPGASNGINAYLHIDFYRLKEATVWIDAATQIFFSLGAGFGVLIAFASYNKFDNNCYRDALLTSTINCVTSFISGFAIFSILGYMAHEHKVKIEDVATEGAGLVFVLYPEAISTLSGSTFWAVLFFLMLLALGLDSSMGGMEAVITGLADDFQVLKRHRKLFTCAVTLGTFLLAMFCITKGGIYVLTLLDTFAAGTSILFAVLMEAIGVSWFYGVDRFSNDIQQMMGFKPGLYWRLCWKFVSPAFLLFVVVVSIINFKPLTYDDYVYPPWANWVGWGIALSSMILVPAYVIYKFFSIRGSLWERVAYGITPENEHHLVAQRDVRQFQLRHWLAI
# [1] = target: SERT (Rattus norvegicus, UniProt P31652); experiment: Inhibition of [3H]5-HT uptake in rat brain synaptosomes; assay type: biochemical
# [2] = target: NET (Rattus norvegicus, UniProt Q63380); experiment: Inhibition of [3H]norepinephrine uptake in rat brain synaptosomes; assay type: biochemical
compound,measurement,setting,value
"COC(=O)[C@H]1[C@@H](OC(=O)c2ccccc2)C[C@@H]2CC[C@H]1N2C [Cocaine, (−)-cocaine, reference compound]",IC50,[1],318 ± 7.2 nM
same,IC50,[2],247 ± 20.7 nM
